# Screens: PubChem, National Center for Advancing Translational Sciences (NCATS)
# The list is not random: actives were taken first. Their share in the collection is about 13%.
# ALDH1A1 inh – ALDH1A1 (human) enzyme inhibition. AID 1030. Purified ALDH1A1, NADH fluorescence, propionaldehyde substrate. Potency, µM (series often up to 75.3 µM), for inactives: at the highest dose activity, negative = inhibition, actives largely listed as inhibitors. P00352. 220,000 compounds, 7.3% hits; active = well fitted inhibition curve with a large enough effect, not every such curve was filed as active; inconclusive = small, poorly fitted or top-dose-only effect, or another doubt; inactive = no such curve, though single readings can be large or run the other way;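 note: potency is the fitted concentration of half-maximal effect; plate controls were no enzyme wells and a reference inhibitor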
# JMJD2E inh – JMJD2E (human) inhibition; B2RXH2; JMJD2E catalytic domain, FDH-coupled NADH fluorescence (FDH is formaldehyde dehydrogenase); Potency, µM (series often up to 57.1 µM), for inactives: at the highest dose activity change, negative = inhibition, actives largely listed as inhibitors; 230,000 compounds, 1.6% hits; AID 2147; active = well fitted inhibition curve with a large enough effect, not every such curve was filed as active; inconclusive = small, poorly fitted or top-dose-only effect, or another doubt; inactive = no such curve, though single readings can be large or run the other way;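 note: potency is the fitted concentration of half-maximal effect; 0% = wells with enzyme and -100% = buffer wells without enzyme; nearly all actives have a fitted effect of over 50% in size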
# Sfp PPTase inh – qHTS Assay for Inhibitors of Bacillus subtilis Sfp phosphopantetheinyl transferase (PPTase) | Biochemical Sfp PPTase activity, qHTS | Potency, µM, without a hit: max response, negative = inhibition, most hits filed as inhibitors | actives 3.5% (n = 310,000) | AID 1490, 2009 | 4'-phosphopantetheinyl transferase ffp (Bacillus subtilis), Q9F4F7; active = well fitted inhibition curve with a large enough effect; inconclusive = small, poorly fitted or top-dose-only effect, or another doubt; inactive = no such curve, though single readings can be large or run the other way;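 note: the enzyme is Sfp with the accession as filed and its product quenches rhodamine fluorescence; potency is the fitted concentration of half-maximal effect; 0% = enzyme reaction without inhibitor and -100% = no enzyme wells; top concentration of the series not given in the record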
#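 Sfp 15 nM + cpd, 15 min RT; start w/ rhodamine-CoA 5 uM, BHQ-2-YbbR 12.5 uM (final); 50 mM Hepes pH 7.6, 10 mM MgCl2, 0.01% NP-40, 0.01% BSA; read 525/598 nm at 0 and 30 min.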
# G9a inh – inhibitors of human histone lysine methyltransferase G9a. Q96KQ7. G9a H3K9 monomethylation, AlphaScreen, 2 h. Potency, µM (top dose mostly 102 µM), without a hit: at the top dose activity, negative = inhibition, most hits filed as inhibitors. 350,000 compounds, 8.8% hits. AID 504332; note: potency is the fitted concentration of half-maximal effect; % is set by controls: 0 for no effect and ±100 for the full control effect; nearly all actives have a fitted effect of over 75% in size
#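 G9a (20 nM) preincubated 15 min RT with compounds, then 500 nM biotinylated H3K9 peptide and 20 uM SAM added; 2 h RT reaction. Monomethyl-H3K9 product detected by AlphaScreen with anti-H3K9me1 antibody, streptavidin donor and anti-rabbit IgG acceptor beads.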
# LMNA splice mod – changes lamin A minigene splicing in HeLa cells; Potency, µM (doses to about 46.1 µM), without a hit: at the highest dose ratio change, negative = inhibition, most hits filed as inhibitors; 200,000 compounds, 0.01% hits; HeLa LMNA splicing GFP/RFP minigene ratio, 48 h; active = well fitted inhibition curve with a large enough effect in the signal ratio, with a control signal flat, not every such curve was filed as active; inconclusive = small, poorly fitted or top-dose-only effect, or effect the other way, or a change in a side signal; the % refers to the signal ratio; note: potency is the fitted concentration of half-maximal effect; % is set by controls: 0 for no effect and ±100 for the full control effect
#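 Read-out is the ratio of GFP to DsRed2 object intensity, acquired by 488 nm laser-scanning cytometry on HeLa lamin A-EGFP minigene reporter cells. Compound incubation 48 hrs at 37 °C in Opti-MEM with 2% FBS; DMSO 0.5% final.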
# miR-21 reporter – miR-21 reporter, rising signal; Potency, µM (top dose mostly 38.3 µM), for the others: at the highest dose reporter change, positive = more light; 340,000 tested, under 10 active; HeLa miR-21 FLuc reporter, luciferase, 48 h; active = well fitted rising curve with a large enough effect; inconclusive = small, poorly fitted or top-dose-only effect; inactive = no such curve, though single readings can be large or run the other way;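 note: % of control where 0% means no effect; miR-21 action dims this reporter so a rising signal means less miR-21 action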
#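 HeLa miR-21-FLuc reporter line, endogenous miR-21; 2000 cells/well in DMEM/10% FBS; compound titration up to ~40uM final, 48 h, 37 degree Celsius; luciferase detection reagent, 15 min lysis, CCD luminescence.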
# Numbers without * were called inactive; ? = inconclusive; / = not tested or not shown; ! = not confirmed by another sample; [ ] = dose if it differs, or a comment. Unless noted, calls come from the whole dose curve; as a rule, active = well fitted curve in the direction sought with a large enough effect; inconclusive = small, poorly fitted or top-dose-only effect, or another doubt; inactive = no such curve, though single readings can be large; an effect the other way counts as inactive or inconclusive.
item	ALDH1A1 inh	JMJD2E inh	Sfp PPTase inh	G9a inh	LMNA splice mod	miR-21 reporter	SMILES
1	/	/	/	-4%[59 µM]	/	-14%	CCOC(=O)c1ccc2ncc(C(=O)OCC)c(Nc3ccc(C)c(Br)c3)c2c1
2	/	/	/	9%	/	/	Cn1c(SCC(=O)NC2CCCc3ccccc32)nnc1C1CC1 (stereo not given)
3	/	/	-11%	/	/	-2%	CCN(CC)c1ccc(N2C(=NC(=O)C3CC3)SC3CS(=O)(=O)CC32)cc1 (stereo not given)
4	?	?	?	8%[59 µM]	18%[46 µM]	1%	C=CCNC(=O)c1ccc(C2SCC(=O)N2Cc2ccco2)cc1 (stereo not given)
5	10µM*	8%	11µM*	/	/	3%	COCCNC(=O)c1ccc(C2SCC(=O)N2Cc2ccco2)cc1 (stereo not given)
6	7.1µM*	-21%	35µM*	2%[12.7 µM]	-6%	-8%	O=C(NCc1ccc2c(c1)OCO2)c1ccc(C2SCC(=O)N2Cc2ccco2)cc1 (stereo not given)
7	/	/	11%	/	/	/	CCCN1CCC(=O)N(C(CSc2ccc(Br)cc2)c2ccccc2)CC1 (stereo not given)
8	-15%	-7%	-5%	10µM*	/	-32%	Fc1ccccc1-n1cn[nH]c1=S
9	1%	4%	0%	10%[59 µM]	-8%	-3%	O=c1[nH]ncn1-c1ccccc1C(F)(F)F
10	6%	-21%	3%	?	-9%	0%	CCOC(=O)C1=C(C)N=c2s/c(=C3\C(=O)Nc4ccccc43)c(=O)n2C1c1ccc2c(c1)OCO2 (stereo not given)
11	/	-14%	25µM*	8.9µM*	/	0%	C=CCOC(=O)C1=C(C)N=c2s/c(=C3\C(=O)N(CC(=O)O)c4ccccc43)c(=O)n2C1c1ccc(OC)cc1 (stereo not given)
12	/	4%	13%	/	/	7%	CN1CCN(C(=O)CCC(=O)O)CC1

# (more compounds)
item	ALDH1A1 inh	JMJD2E inh	Sfp PPTase inh	G9a inh	LMNA splice mod	miR-21 reporter	SMILES
13	3%	2%	-18%	35µM*	7%	2%	CN1CCN(CC(=O)O)CC1
14	-7%	-29%	-15%	7.9µM*	-8%	2%	CCOC(=O)C1CCN(Cc2cn[nH]c2-c2ccccc2)CC1
15	/	/	-5%	10µM*	/	-30%	NC(=O)C1CCN(Cc2ccc(OCc3ccccc3)cc2)CC1
16	/	/	-20%	28µM*	/	-9%	CCOC(=O)C1CCN(Cc2ccc(OCc3ccccc3)cc2)CC1
17	/	3%	4%	-8%[59 µM]	/	-4%	CCOC(=O)C1CCN(C(=O)Nc2ccc(OCc3ccccc3)cc2)CC1
18	/	/	/	-22%[59 µM]	/	3%	CC(Sc1nc(=O)cc(N)n1CCc1ccccc1)C(=O)Nc1ccccc1C#N (stereo not given)
19	/	/	/	-40%[59 µM]	/	0%	COc1cc(SC)ccc1C(=O)N1CCn2c3c(c4cc(C)ccc42)CCCC31 (stereo not given)
20	-5%	?	14%	11µM*!	-27%	/	CC(=O)NCCc1c[nH]c2ccc(O)cc12
21	-2%	?	10%	0%[59 µM]	?	/	COc1ccc2[nH]cc(CCNC(C)=O)c2c1
22	4.5µM*	?	40µM*	3.5µM*	?	-50%	CC(=O)C(Sc1nn(C)c(=S)s1)C(=O)Nc1ccccc1 (stereo not given)
23	/	/	16%	-1%	/	-1%	COc1ccc2[nH]c(CN3CCC(n4nccc4NC(=O)C4CC4)CC3)c(C)c2c1
24	1%	?	-11%	?	3%	-2%	CC1(C)Cc2c(sc3c2C2=NCCN2C=N3)CO1

# 5 compounds out of the list, sorted by heavy-atom count, high to low.
item	ALDH1A1 inh	JMJD2E inh	Sfp PPTase inh	G9a inh	LMNA splice mod	miR-21 reporter	SMILES
23	/	/	16%	-1%	/	-1%	COc1ccc2[nH]c(CN3CCC(n4nccc4NC(=O)C4CC4)CC3)c(C)c2c1
16	/	/	-20%	28µM*	/	-9%	CCOC(=O)C1CCN(Cc2ccc(OCc3ccccc3)cc2)CC1
14	-7%	-29%	-15%	7.9µM*	-8%	2%	CCOC(=O)C1CCN(Cc2cn[nH]c2-c2ccccc2)CC1
22	4.5µM*	?	40µM*	3.5µM*	?	-50%	CC(=O)C(Sc1nn(C)c(=S)s1)C(=O)Nc1ccccc1 (stereo not given)
20	-5%	?	14%	11µM*!	-27%	/	CC(=O)NCCc1c[nH]c2ccc(O)cc12

# Continued:
item	ALDH1A1 inh	JMJD2E inh	Sfp PPTase inh	G9a inh	LMNA splice mod	miR-21 reporter	SMILES
25	8.9µM*	-5%	12%	-12%[12.7 µM]	-22%	-4%	O=S1(=O)CCN2C=Nc3sc4c(c3C2=N1)CCCC4
26	/	/	13%	23%	/	26%	CC(=O)N1c2ccc(S(=O)(=O)N3CCC(C(=O)N4CCN(c5ccc(Cl)cc5)CC4)CC3)cc2CC1C (stereo not given)
27	-7%	-4%	19%	?	2%	0%	CC(O)C(O)C(O)C(O)C1NCCS1 (stereo not given)
28	-1%	-5%	-3%	50µM*	6%	2%	OCC(O)C(O)C(O)C(O)C1NCCS1 (stereo not given)
29	/	/	-12%	/	/	/	COc1ccc(C2CC(c3ccccc3)Oc3cc(C)cc(C)c32)cc1 (stereo not given)
30	?	-5%	12%	?	-12%	-6%	Cc1ccccc1C(=O)NC(=S)Nc1ccc(Cc2ccncc2)cc1
31	-9%	0%	-22%	79µM*	/	15%	O=C(NC(=S)Nc1ccc(Cc2ccncc2)cc1)c1ccccc1F
32	14µM*	-7%	-2%	?	?	20%	COc1ccc(C(=O)NC(=S)Nc2ccc(Cc3ccncc3)cc2)cc1
33	/	/	/	-34%[59 µM]	/	-1%	Cc1ccc(CNC(=O)CSCc2nc(-c3cccc(C)c3)oc2C)cc1
34	11µM*	-28%	-24%	?	/	-1%	COc1ccc(N2C(=O)C3C(c4ccc(C(=O)O)cc4)NC(Cc4ccccc4)(C(=O)O)C3C2=O)c([N+](=O)[O-])c1 (stereo not given)
35	/	/	6%	?	/	-2%	COc1ccc(C(=O)NCc2c(C)oc(C)c2C(=O)O)cc1
36	?	0%	25µM*	?	-1%	-5%	COc1ccc(C(=O)NCc2oc(-c3ccccc3)cc2C(=O)O)cc1

# Remaining list, next part
item	ALDH1A1 inh	JMJD2E inh	Sfp PPTase inh	G9a inh	LMNA splice mod	miR-21 reporter	SMILES
37	/	/	/	-24%[59 µM]	/	-17%	COc1cc(-c2noc(-c3ccc(NCc4ccco4)c([N+](=O)[O-])c3)n2)cc(OC)c1OC
38	/	/	?	40µM*	/	-4%	O=C(/C=C/c1ccco1)N(Cc1cccc(F)c1)C1CCS(=O)(=O)C1 (stereo not given)
39	/	-26%	?	/	/	-6%	O=C(/C=C/c1ccco1)N(Cc1cccc(Br)c1)C1CCS(=O)(=O)C1 (stereo not given)
40	/	-25%	32µM*	?	/	-5%	O=C(/C=C/c1ccco1)N(Cc1cccc(Cl)c1)C1CCS(=O)(=O)C1 (stereo not given)
41	/	-5%	25µM*	35µM*	/	0%	O=C(/C=C/c1ccco1)N(Cc1ccccc1)C1CCS(=O)(=O)C1 (stereo not given)
42	/	-5%	-30%	/	/	2%	O=C(/C=C/c1ccco1)N(Cc1ccc(F)cc1)C1CCS(=O)(=O)C1 (stereo not given)
43	/	/	/	?	/	3%	Cc1cc(C)c2c(=O)cc(C(=O)Nc3ccc(C)c(Cl)c3)oc2c1
44	2µM*	4%	14µM*	5µM*	-19%	-58%	c1ccc(Cc2nn3c(C4COc5ccccc5O4)nnc3s2)cc1 (stereo not given)
45	?	4%	1%	-4%[59 µM]	-9%	-7%	Cc1ccc(-c2nnc3sc(C4COc5ccccc5O4)nn23)cc1 (stereo not given)
